# Measured values published in paper PMC3427755 (Organic & biomolecular chemistry, 2012).
# Chains of the proteins cited; added tags and fusions are not shown. Residues count along the entry.
# UniProt P15056, 433-726 V600E: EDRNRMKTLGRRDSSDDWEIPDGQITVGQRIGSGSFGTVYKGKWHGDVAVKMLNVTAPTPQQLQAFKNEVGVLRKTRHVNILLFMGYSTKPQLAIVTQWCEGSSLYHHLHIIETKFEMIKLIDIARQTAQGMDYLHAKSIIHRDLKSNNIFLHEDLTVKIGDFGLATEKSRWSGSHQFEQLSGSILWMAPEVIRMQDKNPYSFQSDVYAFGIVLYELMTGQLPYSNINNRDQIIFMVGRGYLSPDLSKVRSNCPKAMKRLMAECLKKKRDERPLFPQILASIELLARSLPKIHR
# Biological target: B-Raf^V600E (Homo sapiens, UniProt P15056, V600E)
# Assay: In vitro B-Raf kinase assay
# Format: biochemical
structure (smiles),measurement,value
"O=C1NC(=S)NC(=O)C1=Cc1ccc(-c2ccc(Br)cc2)o1 [Compound 22f, 5-[5-(4-bromo-phenyl)-furan-2ylmethylene]-2-thioxo-dihydro-pyrimidine-4,6-dione]",improvement in IC50 values compared with the original hit 22,~5 fold
